According to patent US4411834A, “Preparation of II-deoxy anthracycline antibiotics” (Farmitalia Carlo Erba, S.p.A., priority 1978, dated 1983):

Assay: Toxic deaths in leukemia-bearing mice
Type: in vivo
Conditions: 100 mg/kg, intraperitoneally on day 1; macroscopic autopsy findings
Method: The new glycosides were tested against HeLa cells in vitro (time of exposure to the drugs: 24 hours), and on L 1210 and P 388 leukemia in mice in comparison with daunomycin.
^(a) Mice were treated intraperitoneally on day 1 after tumor cell
^(b) Evaluated on the basis of the macroscopic autopsy findings.

With `COc1cccc2c1C(=O)c1c(cc3c(c1O)[C@@H](O[C@H]1C[C@H](N)[C@H](O)[C@H](C)O1)C[C@](O)(C(=O)CO)C3)C2=O` [Glycoside A, 11-deoxyadriamycin] the Toxic deaths was 1/10.
